Earlier results, collected in patent publication US20110110891A1, “Methods of Treating Hepatitis C Virus Infection” (priority 2008, published 2011).

Protein sequences, listed by entry. Tags and fused reporters are not part of them.
UniProt P28482, whole entry, species assumed: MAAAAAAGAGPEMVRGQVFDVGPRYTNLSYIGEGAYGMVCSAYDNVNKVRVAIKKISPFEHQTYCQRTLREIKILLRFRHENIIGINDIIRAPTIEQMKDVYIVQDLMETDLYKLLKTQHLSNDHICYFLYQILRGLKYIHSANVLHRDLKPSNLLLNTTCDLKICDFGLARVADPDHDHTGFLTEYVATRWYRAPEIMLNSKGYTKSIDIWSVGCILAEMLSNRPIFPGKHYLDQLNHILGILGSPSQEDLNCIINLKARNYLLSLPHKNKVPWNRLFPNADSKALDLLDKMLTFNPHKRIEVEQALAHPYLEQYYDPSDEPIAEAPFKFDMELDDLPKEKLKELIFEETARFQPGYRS

Molecular target: ERK2 (Homo sapiens, UniProt P28482)
Details: read-out: K(i), kinase activity of ERK2; cited from earlier work

For `Nc1n[nH]c2nnc(-c3c(-c4ccccc4)nn4ccccc34)cc12` [FR180204, 5-(2-phenylpyrazolo[1,5-a]pyridin-3-yl)-1H-pyrazolo[3,4-c]pyridazin-3-amine], the Ki is listed as 140 nM.
